Experimental findings from ChEMBL document CHEMBL1158488, “Investigation of the relative cellular permeability of DNA-binding pyrrole-imidazole polyamides” (J Med Chem, 2009) are described below.

One test concerns HeLa. Description: Cell permeability in human HeLa cells assessed as glucocorticoid receptor-dependent induction of luciferase activity after 40 hrs by GAL4-responsive luciferase reporter gene assay. A general note: A reporter such as luciferase makes a cellular process visible.
The target of a further test is T1, Glucocorticoid receptor (Homo sapiens, UniProt P04150).
T1 sequence (P04150 whole entry): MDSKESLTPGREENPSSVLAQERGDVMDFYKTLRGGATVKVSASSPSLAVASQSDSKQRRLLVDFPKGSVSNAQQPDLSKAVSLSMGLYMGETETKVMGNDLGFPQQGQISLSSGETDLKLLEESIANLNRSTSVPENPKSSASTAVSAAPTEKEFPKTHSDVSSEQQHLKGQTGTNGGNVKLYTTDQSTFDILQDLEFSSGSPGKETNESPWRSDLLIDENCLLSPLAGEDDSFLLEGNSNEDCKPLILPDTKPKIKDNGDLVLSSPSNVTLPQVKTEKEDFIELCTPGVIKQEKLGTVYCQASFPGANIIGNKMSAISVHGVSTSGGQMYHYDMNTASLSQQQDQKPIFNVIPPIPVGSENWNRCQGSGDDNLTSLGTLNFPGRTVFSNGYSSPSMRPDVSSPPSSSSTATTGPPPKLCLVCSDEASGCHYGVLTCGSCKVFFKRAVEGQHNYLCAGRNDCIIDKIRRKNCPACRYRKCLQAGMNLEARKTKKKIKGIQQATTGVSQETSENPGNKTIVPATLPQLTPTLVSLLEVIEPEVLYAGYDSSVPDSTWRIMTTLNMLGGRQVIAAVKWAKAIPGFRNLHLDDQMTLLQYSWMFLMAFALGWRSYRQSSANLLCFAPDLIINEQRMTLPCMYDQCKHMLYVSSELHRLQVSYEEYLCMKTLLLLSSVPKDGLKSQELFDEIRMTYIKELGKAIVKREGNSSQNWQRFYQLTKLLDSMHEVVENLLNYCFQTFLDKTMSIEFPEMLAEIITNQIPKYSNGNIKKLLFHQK

As usually defined, the EC50 is the concentration that produces a half-maximal response. Broadly, the IC50 is the concentration needed to halve the response being measured. On to `CC(=O)NCCCN(C)CCCNC(=S)NCCSCC(=O)[C@@]1(O)[C@H](C)C[C@H]2[C@@H]3CCC4=CC(=O)C=C[C@]4(C)[C@@]3(F)[C@@H](O)C[C@@]21C`, for which the EC50 in the test with HeLa stood at 800 nM. In addition, at Glucocorticoid receptor, the IC50 was 8.3 nM.
Take `C[C@@H]1C[C@H]2[C@@H]3CCC4=CC(=O)C=C[C@]4(C)[C@@]3(F)[C@@H](O)C[C@]2(C)[C@@]1(O)C(=O)CSCCNC(=S)NCCCN(C)CCCNC(=O)CCNC(=O)c1cc(NC(=O)c2cc(NC(=O)c3cc(NC(=O)c4cc(NC(=O)CCCNC(=O)c5cc(NC(=O)c6cc(NC(=O)c7cc(NC(=O)c8nccn8C)cn7C)cn6C)cn5C)cn4C)cn3C)cn2C)cn1C`: the IC50 on Glucocorticoid receptor was found to be 14 nM.
